# AlphaSeq binding of Ab-95 light chain variants to a spike HR2 peptide

All variants were tested on one target, the spike HR2 peptide PDVDLGDISGINAS (SARS-CoV-2).

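The parent was found by panning a naive human phage display library on the peptide. In library AAYL52, one, two or three CDR residues were substituted; doubles and triples were drawn at random. Affinity was read by AlphaSeq, a pooled yeast mating assay with surface-displayed partners. Mating (16 h, 30 °C) was followed by selection of diploids and sequencing of their barcodes. Each replicate has its own calibration line, from reference interactions of the BCL2 family. There are three technical replicates.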

The variants keep the heavy chain, the linker and the frameworks of Ab-95 (scFv order VH, a (GGGGS)3 linker, VL).
VH: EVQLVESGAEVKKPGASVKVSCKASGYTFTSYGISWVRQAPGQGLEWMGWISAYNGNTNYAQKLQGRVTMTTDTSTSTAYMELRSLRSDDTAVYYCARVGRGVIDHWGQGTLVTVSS
VL: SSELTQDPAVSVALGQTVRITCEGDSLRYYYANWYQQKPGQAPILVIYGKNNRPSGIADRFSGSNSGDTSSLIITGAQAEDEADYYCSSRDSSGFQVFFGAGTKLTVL

The parent's light chain CDRs are EGDSLRYYYAN, GKNNRPS, SSRDSSGFQVF; each variant's own CDRs replace them letter for letter. Scale: log10 of Kd in nM, estimated from mating counts; low values are strong binders. A mean of the replicates is given; it leaves out those without a signal. An entry "nd" has no value in the source: the pair was not observed among the diploids in any replicate. This suggests poor binding but is not conclusive. Parent in this assay: reference entry 2.31, copy in this library 2.25.

CDR-L1	CDR-L2	CDR-L3	mean, log10 nM	detected
EGDSLRYYYTN	GMNNRPS	SSRDSSIFQVF	nd	0 of 3
EFDSLRYYYAY	GKNYRPS	SSRDSSGFQVF	3.35	3 of 3
EGDSLRYYYAY	GKVNRPS	SYRDSSGFQVF	2.37	3 of 3
EGDSLRYYCAN	GKFNRPS	SSRDSSCFQVF	nd	0 of 3
EPDSLRYYYAN	GKNNRPS	SSPDSSGFYVF	4.80	1 of 3
VGDSLRYYYAN	GKNNYPV	SSRDSSGFQVF	3.85	2 of 3
EGDSLRYVYAN	GKNWRPS	ISRDSSGFQVF	nd	0 of 3
ELDSLRYYYAN	GKNLRKS	SSRDSSGFQVF	4.35	1 of 3
EGDSLRYYYAN	GKNNRIS	SSWDDSGFQVF	3.72	2 of 3
EGDSLRYYYAN	GKNYRPS	SSRWSSGFQVF	4.37	1 of 3
EGDSLRYYYEN	GSNNRPG	SSRDSSGFQVF	3.33	1 of 3
EGDSLRYYYAN	GKHNRPS	SSRDSCGFQVR	4.25	1 of 3
EGDSLRYYYAN	GKGNDPS	SHRDSSGFQVF	3.53	1 of 3
EGCSLRYYYAN	GKNNRPG	SSRDSSGPQVF	3.78	2 of 3
EGDSLRCYYMN	GKNNRPS	SSRDHSGFQVF	4.13	2 of 3
EGDSLRYYYAW	GKNNRIS	SSRDSSGFQVF	3.05	2 of 3
EGLSLRYYYAN	GKNNRPS	NSRDSSGKQVF	3.08	1 of 3
EGDSWMYYYAN	GLNNRPS	SSRDSSGFQVF	4.59	1 of 3
EGDSLRYYYAN	GKNNEWS	SSRDTSGFQVF	nd	0 of 3
EADSLRYYYAN	GKNNRPS	SERMSSGFQVF	3.66	2 of 3
EKDSLRYYYAN	GKNNRPS	SSRDFSGYQVF	nd	0 of 3
EGDSNRYYQAN	RKNNRPS	SSRDSSGFQVF	nd	0 of 3
ESDSLRYYYAV	GKNNRPS	SSRDSSGFQVK	nd	0 of 3
EGDSLRYYYAN	GKNNIPS	SSRDSRGFQVM	4.60	1 of 3
CGVSLKYYYAN	GKNNRPS	SSRDSSGFQVF	2.52	3 of 3
EIDSIRYYYAN	GKNNRPS	SSRDSSGGQVF	4.09	2 of 3
EGDSLMYYYAN	GVNNRPS	ESRDSSGFQVF	3.78	3 of 3
IGDSLRYYYAN	GKNNRPS	SSRDSSDFQVK	4.41	2 of 3
EGDSLRYYYAN	GKHNRPS	SSRPSSGFQRF	4.09	1 of 3
EGDSHRYYYAN	GKNNRPS	SSDYSSGFQVF	1.40	3 of 3
TGDSLRYYYAN	QKNIRPS	SSRDSSGFQVF	2.66	3 of 3
EGSSLRYYYAN	GKNNRPS	ASRVSSGFQVF	2.04	3 of 3
EGDSLRYYYYN	GWNNRPS	WSRDSSGFQVF	4.36	1 of 3
EDKSLRYYYAN	GKNNRPS	SSRDSSGFQVI	4.22	1 of 3
EGDSGRYYYAN	GKNNRPR	SSRDSLGFQVF	3.55	1 of 3
EEYSLRYYYIN	GKNNRPS	SSRDSSGFQVF	5.12	1 of 3
EGDSLTYYEAS	GKNNRPS	SSRDSSGFQVF	2.66	3 of 3
EGDSLRWYYAN	GKNNRPS	SSNDNSGFQVF	2.65	1 of 3
EGDSLRYYYAN	GKNNRPS	RSDDSSGAQVF	3.51	2 of 3
EGDSLRYYYAN	GKNNRPS	SSRDSSASIVF	2.74	3 of 3
EGDSMREYYAN	GKNYRPS	SSRDSSGFQVF	2.17	3 of 3
EGDSLRYYYAN	GDNKRPS	SSRDSSGFQVF	1.85	3 of 3
EGDSLRYYYAN	YKWNNPS	SSRDSSGFQVF	nd	0 of 3
EGDSLWYYYAN	GKNNRPS	SSPDSSGFTVF	3.51	1 of 3
EGDSLRYYYAN	GKNNRPS	SSRDPCGFQTF	nd	0 of 3
EGDMLRYYYAQ	GKNNRPS	SSRDSSLFQVF	3.32	3 of 3
EGDSLRYYYAN	GKNNRPM	SSRDSEGFQAF	2.85	3 of 3
GGDSLRYYYAN	GKNNRPF	SSRDSRGFQVF	2.52	3 of 3
EGDSLRYYYAN	GKNNRPS	SSRDSRGFGDF	4.58	2 of 3
IDDSLRYYYAN	GKNNRPS	SSRDSSGFQVM	3.02	1 of 3
EGDSLRYYYIN	GKNNRPS	SCRDSEGFQVF	nd	0 of 3
EGDSHRYYYAN	GKNNRIS	SFRDSSGFQVF	4.04	1 of 3
EGDSLRYYYAN	GKNNRPS	AIRDSSGFHVF	4.32	2 of 3
EGLSLRYYYAN	GKNNDPS	SSRDSSGRQVF	3.73	3 of 3
EGDSLRYYYAN	GKKNRPM	SSRDSSGVQVF	4.64	1 of 3

The opening 7 entries, copied out:

| CDR-L1 | CDR-L2 | CDR-L3 | mean, log10 nM | detected |
|---|---|---|---|---|
| EGDSLRYYYTN | GMNNRPS | SSRDSSIFQVF | nd | 0 of 3 |
| EFDSLRYYYAY | GKNYRPS | SSRDSSGFQVF | 3.35 | 3 of 3 |
| EGDSLRYYYAY | GKVNRPS | SYRDSSGFQVF | 2.37 | 3 of 3 |
| EGDSLRYYCAN | GKFNRPS | SSRDSSCFQVF | nd | 0 of 3 |
| EPDSLRYYYAN | GKNNRPS | SSPDSSGFYVF | 4.80 | 1 of 3 |
| VGDSLRYYYAN | GKNNYPV | SSRDSSGFQVF | 3.85 | 2 of 3 |
| EGDSLRYVYAN | GKNWRPS | ISRDSSGFQVF | nd | 0 of 3 |

Empty control strains, which show no peptide, gave a signal in 28% of pairings with library AAYL52; the median was 3.91 and 95% of these signals were weaker than 2.90. No background was subtracted.

From the AlphaSeq antibody data of Engelhart et al. 2022 (doi:10.1038/s41597-022-01779-4), copy in the FLAb collection.